{
  "source": "patent US20250353928A1",
  "biological_target": "human IgE (SUS-11) (human) (UniProt P01854)",
  "test": "SPR (Biacore 8K), human IgE (SUS-11) captured via anti-IgE Le27, Fab as analyte, 1:1 fit",
  "note": "pKd: −log10 of the molar value.",
  "data": [
    {"substance": "Omalizumab Fab", "values": [
      {"measurement": "pKd", "value": 8.30}
    ]}
  ]
}
